# Measured affinities in a library of Ab-14 light chain variants

Reference: Li et al. 2023, doi:10.1038/s41467-023-39022-2. File: FLAb, binding data.

Target: peptide PDVDLGDISGINAS, taken from heptad repeat 2 (HR2) of SARS-CoV-2 spike.

Parent: Ab-14, a human scFv built as VH, a (GGGGS)3 linker, VL. Only the CDRs of the light chain vary.
VH: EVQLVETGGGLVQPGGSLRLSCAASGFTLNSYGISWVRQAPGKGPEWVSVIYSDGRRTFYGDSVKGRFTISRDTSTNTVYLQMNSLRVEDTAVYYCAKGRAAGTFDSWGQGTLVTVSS
VL: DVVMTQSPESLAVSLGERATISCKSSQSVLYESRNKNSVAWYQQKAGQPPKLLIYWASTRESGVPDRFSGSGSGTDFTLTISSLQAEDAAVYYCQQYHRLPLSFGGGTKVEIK

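The starting antibody came from a phage panning campaign against this peptide. These sequences belong to a second round, designed from the earlier measurements on random variants of the parent. Group labels follow the data file (Ctrl: baseline library sampled from a position-specific scoring matrix, with some repeated check sequences; GP: Gaussian process model; HC: hill climbing; Gen: genetic algorithm; Gibbs: Gibbs sampling; a sequence that several methods proposed may carry one label only). AlphaSeq pools MATa yeast showing the antibodies with MATalpha yeast showing the peptide. Pairs that bind mate more often; barcode pairs of the diploids are counted by sequencing. Read counts were normalised to the haploid input and turned into Kd by a linear fit to BCL2-family pairs of known affinity, for each replicate. There are six technical replicates.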

The parent's light chain CDRs are KSSQSVLYESRNKNSVA, WASTRES, QQYHRLPLS; each variant's own CDRs replace them letter for letter.
Variants here have at most six changes.
The Kd shown is the geometric mean over detected replicates; a lower Kd is a better binder.
A pair that was not seen in any replicate is written "nd"; this usually means weak binding, but a binder can also be missed.

The variant KSSQSVLYESRNKNSVA | GASTREN | QQYHRLPLS [Ctrl] showed 2.2 nM (6 of 6 replicates).
The variant KSSQSWLYESRNKNSVA | GASTREV | QQYHRLPLS [GP_HC] showed 730 pM (6 of 6 replicates).
The variant HMSQSVLYESRNKNSVA | NGSTRES | QQYHRLPLS [GP_HC] showed 1.3 nM (6 of 6 replicates).
The variant KLSQSDGYESRNKNSVA | NASTRES | QQYHRLPLS [GP_Gen] showed 380 pM (6 of 6 replicates).
The variant KVSMSMLYESRNKNSVA | NASQRES | QQYHRLPLS [GP_Gen] showed 480 pM (6 of 6 replicates).
The variant KSSWSWLYESRNKNSVA | WASTRES | QQYHRLPLS [Ctrl] showed 950 pM (6 of 6 replicates).
The variant KSSFSWLYESRNKNSVA | GASIRES | QQYHRLPLS [GP_HC] showed 770 pM (6 of 6 replicates).
The variant KSSQSVLYESRNKNSVA | WASTRES | QQHHRLPLS [Ctrl] showed nd (0 of 6 replicates).
The variant KLSQSVLYESRNKNSVA | HASQRCS | QQYHRLPLS [GP_Gen] showed 790 pM (6 of 6 replicates).
The variant NSSQSELYESRNKNSVA | GGNTRES | QQYHRLPLS [GP_HC] showed 2.0 nM (6 of 6 replicates).
The variant KLQQSWLYESRNKNSVA | NASTRYS | QQYHRLPLS [GP_Gen] showed 1.3 nM (6 of 6 replicates).
The variant KLQQSQLYESRNKNSVA | NASQRLS | QQYHRLPLS [GP_Gen] showed 1.2 nM (6 of 6 replicates).
The variant KSSISQLEESRNKNSVA | EASTRES | QQYHRLPLS [GP_HC] showed 850 pM (6 of 6 replicates).
The variant KSSQSVLYTSRNQNSVA | WASTRES | YQYHRLPLS [Ctrl] showed 58 nM (1 of 6 replicates).
The variant KSSNSVLYESRNKNSVA | EASTREN | QQYHRLPLS [Ctrl] showed 2.2 nM (6 of 6 replicates).
The variant KSSQSVLQESRNKNSVA | WASTRES | QQYHRLPLS [Ctrl] showed 45 nM (3 of 6 replicates).
The variant KFSQSVLYESRTKNSVA | NAHTRET | QQYHRLPLS [GP_HC] showed 430 pM (6 of 6 replicates).
The variant KLSQSDLYESRNKNSVA | NASTRED | QQYHRLPLS [GP_Gen] showed 650 pM (6 of 6 replicates).
The variant KLQQSEEYESRNKNSVA | NASTRES | QQYHRLPLS [GP_Gen] showed 1.4 nM (6 of 6 replicates).
The variant KLEQSELYESRNKNSVA | NASQRMS | QQYHRLPLS [GP_Gen] showed 1.7 nM (6 of 6 replicates).
The variant KLVQSELYESRNKNNVA | AASQRES | QQYHRLPLS [GP_Gibbs] showed 470 pM (6 of 6 replicates).
The variant KSSSSVLNESRNKNSVA | WASTRES | TQYQRLPLS [Ctrl] showed nd (0 of 6 replicates).
The variant KISQSELYESRNKNSVA | NASTRMS | QQYHRLPLS [GP_Gen] showed 310 pM (6 of 6 replicates).
The variant KSSQPVLRESRNKNSVA | WASTRES | QQYHRLPLS [Ctrl] showed nd (0 of 6 replicates).
The variant KSSQSVLYESRNVNSVA | GANTRES | QQYHRAPLS [Ctrl] showed nd (0 of 6 replicates).
The variant KVSQSVLYEFRNKNSVA | SASTREC | QQYHRLPLS [Ctrl] showed 1.7 nM (6 of 6 replicates).
The variant KQQQSVLYESRNKNNVA | HASTRED | QQYARLPLS [GP_HC] showed 460 pM (6 of 6 replicates).
The variant KLDQSELYESRNKNSVA | NASQRLS | QQYHRLPLS [GP_Gen] showed 5.0 nM (6 of 6 replicates).
The variant KSSQEKLYESRNKNSVA | DASTRES | QQYHRLPLS [GP_HC] showed 730 pM (6 of 6 replicates).
The variant KSSISYLYESRNPNSVA | EASTREQ | QQYHRLPLS [GP_HC] showed 890 pM (6 of 6 replicates).
The variant KSSISYLYESRNKNSVA | AASTREQ | QQYHRLPLS [GP_HC] showed 1.0 nM (6 of 6 replicates).
The variant KSSQSVLYESRDKNSVA | NASTRES | QQPHRLPLS [Ctrl] showed 570 pM (6 of 6 replicates).

The range of this assay differs from that of the first round, and the authors advise against merging the two.
Empty control strains, which show no peptide, gave a signal in 4% of pairings with all light chain designs; the median was 430 nM and 95% of these signals were weaker than 38 nM. No background was subtracted.
The authors averaged sequences with at least three values out of six and counted those with two or fewer as poor binders.